Ab-14 heavy chain CDR variants: yeast mating affinities

Target peptide (SARS-CoV-2 spike, HR2 region): PDVDLGDISGINAS

Ab-14 is the parent antibody, in scFv form: VH, then a (GGGGS)3 linker, then VL. The light chain is unchanged in all variants.
VH: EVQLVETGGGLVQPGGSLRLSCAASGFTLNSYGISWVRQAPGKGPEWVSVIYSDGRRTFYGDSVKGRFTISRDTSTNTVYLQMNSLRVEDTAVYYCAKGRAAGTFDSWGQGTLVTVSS
VL: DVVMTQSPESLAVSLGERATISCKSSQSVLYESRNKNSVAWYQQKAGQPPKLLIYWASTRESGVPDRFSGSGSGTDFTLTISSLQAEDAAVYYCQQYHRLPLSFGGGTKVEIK

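Phage display of a naive human antibody library on the peptide gave the parent. Designed CDR sequences, proposed from the first random library and measured here. Their group label is 14H_GP_Gen (GP: Gaussian process model; Gen: genetic algorithm; a sequence that several methods proposed may carry one label only). AlphaSeq pools MATa yeast showing the antibodies with MATalpha yeast showing the peptide. Binding brings cells together so that they mate, and sequencing counts the barcode pairs among the diploids. Each replicate has its own calibration line, from reference interactions of the BCL2 family. The assay was run in six technical replicates.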

Positions count from residue 1 of the parent VH; T28S puts S in place of T. Affinities are written as log10 Kd with Kd in nM; a lower number is a better binder. A mean of the replicates is given; it leaves out those without a signal. "n.d." means that the variant was in the library but no mating with the target was seen in that replicate; the authors take this as a sign of poor binding, and no number exists. The range of this assay differs from that of the first round, and the authors advise against merging the two. The authors' rule: three or more of the six replicates give a measured affinity, fewer mean a poor binder. Empty control strains, which show no peptide, gave a signal in 1% of pairings with all heavy chain designs; the median was 2.08 and 95% of these signals were weaker than 0.84. No background was subtracted. Also given: how often the same scFv was detected with the empty control strains, with their mean in brackets.

changes	log10 Kd, replicates	mean, log10 nM	control signals
T28S S63N A101I	0.98 / 1.10 / 1.41 / 2.06 / 1.98 / 1.02	1.42	1/18 (2.42)
T28E S31D G61M A101T	0.62 / 0.52 / 0.38 / 0.44 / 0.44 / 0.28	0.45	0/18
T28E S63Q R100E	0.72 / 1.15 / 0.47 / 1.30 / 1.00 / 1.51	1.02	0/18
S31E A101S S107K	1.15 / 1.56 / 1.60 / 1.74 / 1.23 / 1.66	1.49	1/18 (1.88)
N30E S63Q A101T	0.91 / 2.16 / 1.78 / 1.79 / 2.54 / 2.13	1.89	0/18
T28G S31E G61H R100N	0.52 / 0.20 / -0.28 / 0.00 / -0.19 / 0.17	0.07	0/18
T28D S63D R100Q A101T	0.23 / -0.01 / 0.06 / 0.31 / -0.14 / 0.00	0.08	1/18 (0.80)
T28Q S31E A101Q D106I	n.d. / n.d. / n.d. / n.d. / n.d. / n.d.	n.d.	0/18
T28D S63E A101Q	n.d. / -0.07 / -0.36 / -0.04 / 0.52 / -0.25	-0.04	0/18
G26K T28D R100K A101Q	1.54 / 0.37 / n.d. / 1.24 / 0.90 / n.d.	1.01	0/18
T28E G61H R100N	1.17 / 0.36 / 0.49 / 0.45 / 0.67 / 0.55	0.61	0/18
T28N R100H	n.d. / n.d. / n.d. / n.d. / n.d. / n.d.	n.d.	0/18
G26M T28D G61A R100N	1.92 / 1.64 / 4.33 / 2.35 / 1.94 / n.d.	2.44	0/18
T28G S53A A101T	0.16 / -0.58 / -0.13 / 0.32 / 0.01 / 0.59	0.06	1/18 (0.69)
T28D R56L A101Q	0.52 / 0.19 / -0.08 / -0.13 / -0.03 / 0.14	0.10	0/18
T28D G61V R100K A101E	-0.29 / -0.55 / -0.08 / -0.34 / -0.25 / -0.27	-0.30	0/18
G26K T28K S31E A101T	0.27 / -0.31 / -0.15 / 0.00 / 0.12 / 0.57	0.08	0/18
T28D G61H R100S	0.61 / 0.13 / 0.23 / 0.25 / 0.16 / 0.59	0.33	0/18
G26N T28D R100Q A101T	2.06 / 1.01 / 0.51 / 0.94 / 0.67 / 1.13	1.05	0/18
T28N S63N A101I	1.22 / 2.04 / 0.92 / 1.32 / n.d. / 1.07	1.32	0/18
G26M T28D F59A A101T	-0.12 / -0.41 / -0.03 / 0.09 / -0.34 / 0.07	-0.12	0/18
G26S T28D G61Q A101T	0.57 / 0.22 / 1.22 / 0.54 / 0.69 / 0.33	0.60	1/18 (1.49)
T28E S63Q A101N	n.d. / n.d. / n.d. / n.d. / 0.70 / n.d.	0.70	0/18
T28E G61A S63Q R100Q A101T	-0.43 / 0.05 / -0.19 / 0.37 / 0.28 / 0.91	0.17	0/18
T28S S31N G61I R100N	0.69 / 0.29 / -0.05 / 0.16 / 0.40 / 0.21	0.28	0/18
T28D S31E A101H	0.71 / 0.04 / 0.42 / 0.08 / 0.26 / 0.34	0.31	0/18
T28E S31E A101Q S107A	0.35 / 0.24 / -0.22 / 0.00 / 0.01 / -0.12	0.04	1/18 (0.89)
T28E G61H R100K	1.37 / 0.49 / 1.01 / 1.69 / 0.76 / 0.79	1.02	0/18
G26K T28D R100E A101T	1.42 / 1.66 / 1.68 / n.d. / 2.13 / 1.82	1.74	0/18
T28A S31E A101Q	-0.06 / 0.59 / -0.14 / 0.20 / 0.28 / 0.35	0.20	1/18 (1.74)
T28D G61D S63K A101T	n.d. / 0.18 / -0.27 / -0.68 / -0.33 / -0.62	-0.35	0/18
T28S S31E R100K S107C	n.d. / n.d. / n.d. / n.d. / n.d. / n.d.	n.d.	0/18
T28E R100S A101V	0.90 / 0.13 / -0.15 / -0.53 / -0.27 / 0.20	0.05	1/18 (2.31)
T28S R100T A101N	0.17 / 0.43 / -0.13 / 0.33 / -0.09 / 0.23	0.16	0/18
T28S S31E R100K A101T S107T	-0.23 / -0.59 / -0.77 / -0.77 / -0.35 / -0.53	-0.54	1/18 (1.49)
G26M T28D A101E S107T	n.d. / -0.08 / n.d. / 0.84 / 0.43 / -0.60	0.15	0/18
T28D R56K A101M	0.45 / -0.40 / -0.18 / 0.34 / -0.09 / 0.07	0.03	0/18
T28D R56Q A101N	1.30 / -0.06 / 0.00 / 0.30 / 0.21 / 0.52	0.38	0/18
T28D G61V A101I	0.44 / 0.45 / 0.71 / 0.39 / 0.56 / 0.99	0.59	0/18
T28E S31E S63M A101T	0.03 / 0.22 / 0.09 / 0.11 / 0.15 / 0.48	0.18	0/18
G26K T28D S31E A101T	0.97 / 1.00 / 0.66 / 1.01 / 0.94 / 0.87	0.91	0/18

Data: MIT Lincoln Laboratory AlphaSeq set, Li et al. 2023, doi:10.1038/s41467-023-39022-2, as distributed in FLAb.